Test results published in ChEMBL document CHEMBL3351463, “Methyl effect in azumamides provides insight into histone deacetylase inhibition by macrocycles” (J Med Chem, 2014).

Biological target: T1, Polyamine deacetylase HDAC10 (Homo sapiens, UniProt Q969S8)
T1 sequence (Q969S8 whole entry): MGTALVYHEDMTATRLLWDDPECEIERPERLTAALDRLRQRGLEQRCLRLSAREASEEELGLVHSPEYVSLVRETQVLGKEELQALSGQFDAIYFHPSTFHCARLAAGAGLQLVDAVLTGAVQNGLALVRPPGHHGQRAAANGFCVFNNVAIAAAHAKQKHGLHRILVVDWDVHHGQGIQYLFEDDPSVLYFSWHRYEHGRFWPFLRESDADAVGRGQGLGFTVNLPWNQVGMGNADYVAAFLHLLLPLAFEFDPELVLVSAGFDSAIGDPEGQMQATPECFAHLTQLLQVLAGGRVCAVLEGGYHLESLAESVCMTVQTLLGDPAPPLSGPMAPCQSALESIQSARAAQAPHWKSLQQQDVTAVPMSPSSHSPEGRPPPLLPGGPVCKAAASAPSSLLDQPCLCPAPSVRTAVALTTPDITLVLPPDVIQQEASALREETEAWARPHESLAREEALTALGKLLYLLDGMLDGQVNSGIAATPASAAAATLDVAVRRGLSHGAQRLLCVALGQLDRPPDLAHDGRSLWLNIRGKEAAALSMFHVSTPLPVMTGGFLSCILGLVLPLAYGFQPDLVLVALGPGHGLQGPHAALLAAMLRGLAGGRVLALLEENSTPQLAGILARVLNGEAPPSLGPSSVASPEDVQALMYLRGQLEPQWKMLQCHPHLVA
Test: Inhibition of human recombinant HDAC10 using Ac-Arg-His-Lys(Ac)-Lys(Ac)-AMC substrate incubated for 15 to 30 mins

- Ki: 40 nM
SMILES: O=C(CCCCCCC(=O)Nc1ccccc1)NO [VORINOSTAT]
